The text below walks through data of patent US9067894B1, “Compound, composition, and method of activating GIRK potassium channel and use of same for treating conditions of interest” (Vanderbilt University, priority 2013, dated 2015).

Chains of the proteins cited; added tags and fusions are not shown.
UniProt P48051, whole entry: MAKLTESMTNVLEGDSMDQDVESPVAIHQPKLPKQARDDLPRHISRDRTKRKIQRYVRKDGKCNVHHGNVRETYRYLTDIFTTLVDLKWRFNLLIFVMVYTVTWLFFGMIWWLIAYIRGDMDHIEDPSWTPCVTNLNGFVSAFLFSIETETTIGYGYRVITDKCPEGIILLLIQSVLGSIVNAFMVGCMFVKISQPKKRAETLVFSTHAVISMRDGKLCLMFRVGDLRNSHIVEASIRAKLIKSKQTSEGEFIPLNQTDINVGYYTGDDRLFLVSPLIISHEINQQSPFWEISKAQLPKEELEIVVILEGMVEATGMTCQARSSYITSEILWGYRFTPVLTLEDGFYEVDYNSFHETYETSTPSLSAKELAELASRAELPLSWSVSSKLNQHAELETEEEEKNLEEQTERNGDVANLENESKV
UniProt P48549, whole entry: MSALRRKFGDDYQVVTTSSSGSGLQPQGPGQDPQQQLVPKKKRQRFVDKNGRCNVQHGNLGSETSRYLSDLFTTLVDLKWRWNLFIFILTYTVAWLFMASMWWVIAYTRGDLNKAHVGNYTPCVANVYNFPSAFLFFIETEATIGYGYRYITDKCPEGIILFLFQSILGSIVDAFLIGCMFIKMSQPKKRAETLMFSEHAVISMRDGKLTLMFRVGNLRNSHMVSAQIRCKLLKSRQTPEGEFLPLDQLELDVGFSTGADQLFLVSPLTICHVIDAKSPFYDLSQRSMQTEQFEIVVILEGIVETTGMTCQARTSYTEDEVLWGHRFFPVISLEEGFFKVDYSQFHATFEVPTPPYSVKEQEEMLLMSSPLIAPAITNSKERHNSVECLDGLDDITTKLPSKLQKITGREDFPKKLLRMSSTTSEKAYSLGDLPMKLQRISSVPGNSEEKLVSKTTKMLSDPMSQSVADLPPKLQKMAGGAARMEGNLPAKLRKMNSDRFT
UniProt P48544, whole entry: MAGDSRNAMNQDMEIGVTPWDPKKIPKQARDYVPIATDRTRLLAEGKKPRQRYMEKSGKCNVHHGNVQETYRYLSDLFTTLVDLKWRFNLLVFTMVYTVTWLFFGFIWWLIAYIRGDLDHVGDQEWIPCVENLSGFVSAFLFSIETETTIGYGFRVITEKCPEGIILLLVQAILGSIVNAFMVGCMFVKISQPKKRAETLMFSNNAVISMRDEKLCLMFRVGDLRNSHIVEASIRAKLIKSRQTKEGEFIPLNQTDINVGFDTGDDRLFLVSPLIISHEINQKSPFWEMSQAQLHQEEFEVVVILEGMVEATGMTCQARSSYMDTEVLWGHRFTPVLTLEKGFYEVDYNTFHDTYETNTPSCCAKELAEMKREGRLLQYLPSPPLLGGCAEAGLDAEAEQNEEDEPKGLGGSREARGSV

Experiment [1] has as its target GIRK1/2 (Homo sapiens, UniProt P48051+P48549). The experiment is described as follows: Thallium flux assay protocol (Examples 2 and 3), GIRK1/GIRK2 HEK-293 cells. It counts as cell-based. As to conditions: read-out: GIRK1/2 EC50; Table 4, analogs 8; triplicate determinations.
In experiment [2] the target is GIRK1/4 (Homo sapiens, UniProt P48544+P48549). The experiment is described as follows: Thallium flux assay protocol (Examples 2 and 3), GIRK1/GIRK4 HEK-293 cells. It counts as cell-based. The procedure:
Compounds were dissolved in DMSO, transferred to 384-well polypropylene plates, and serially diluted in DMSO using and Agilent Bravo (11-points, threefold dilutions). Serially diluted plates were dispensed to daughter plates using a Labcyte Echo555 and diluted to twofold over their target assay concentration with 20 mM HEPES-buffered (pH 7.4) Hanks Balanced Salt Solution (HBSS), hereafter referred to as Assay Buffer, using a Thermo Fisher Combi. Twenty-thousand HEK-293 cells/well stably transfected with the ion channel subunits of interest (e.g., GIRK1/GIRK2, GIRK1/GIRK4) were plated into 384-well, black-walled, clear-bottom, amine-coated coated plates in 20 LL/well alpha-minimal essential medium (MEM) supplemented with 10% (v/v) fetal bovine serum and incubated overnight in a 5% CO2 incubator at 37° C. Cell culture medium was removed from cell plates and replaced with 20 LL/well Assay Buffer. […] Fluorescence data were collected at 1 Hz. Data analysis: Waveform signals (fluorescence intensity vs time normalized by dividing each fluorescence value (F) by the initial fluorescence value for each trace (F0)) were reduced to single values by subtracting the average normalized waveform from vehicle control wells from each wave on the plate followed by obtaining the slope of the change in fluorescence immediately after the addition of the thallium stimulus. […]

As to `O=C(Cc1ccccc1Cl)Nc1ccc(C(F)(F)F)cc1`, the EC50 in experiment [1] was above 10 µM. In addition, in experiment [2], the “activity at GIRK1/4 (in words)” value is recorded as “selective, partial GIRK1/4 activators”. Also, in experiment [2] (Table 4, standardized to efficacy of 2 = 100%), the “GIRK1/4 Efficacy” value was 20%.
